The values that follow come from PubChem BioAssay AID624267 (The Scripps Research Institute Molecular Screening Center, 2012).

By UniProt entry, the sequences of proteins in these tests, tags left out.
UniProt O43353, whole entry: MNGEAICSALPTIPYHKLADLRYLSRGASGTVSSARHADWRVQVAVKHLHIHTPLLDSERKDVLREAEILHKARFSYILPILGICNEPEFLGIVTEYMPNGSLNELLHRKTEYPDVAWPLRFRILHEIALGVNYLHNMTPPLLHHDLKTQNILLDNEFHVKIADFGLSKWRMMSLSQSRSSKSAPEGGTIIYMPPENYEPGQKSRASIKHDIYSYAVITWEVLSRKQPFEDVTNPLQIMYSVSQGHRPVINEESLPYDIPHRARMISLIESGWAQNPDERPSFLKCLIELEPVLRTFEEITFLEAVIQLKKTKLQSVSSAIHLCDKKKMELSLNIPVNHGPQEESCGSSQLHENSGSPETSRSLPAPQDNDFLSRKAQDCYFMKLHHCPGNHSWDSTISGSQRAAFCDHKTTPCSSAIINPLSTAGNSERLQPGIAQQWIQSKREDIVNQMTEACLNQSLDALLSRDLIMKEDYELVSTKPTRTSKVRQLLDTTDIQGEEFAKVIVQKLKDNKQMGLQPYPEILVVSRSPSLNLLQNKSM

The inhibition is the relative decrease from the control value, in per cent.

The list shows a part of the results, in another mix than the full data. Activity calls are given as the source filed them. No stated cut-off is given here; in the data, active means inhibition above about 21%; inactive means the rest.

In the assay the target is Receptor-interacting serine/threonine-protein kinase 2 (Homo sapiens) (UniProt O43353). The assay can be described thus: NOD2-RIPK2 binding disruptors in cells, primary screen, fluorescence, CHO cells, BLA complementation (AID 624267).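 Further: 0% = vehicle only and 100% = reference blocker.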 To be noted: CHO BLA complementation NOD2-RIPK2, CCF4 ratio; at 4.98 µM; stronger effect = higher value.
`CN1CCN(CCOC(=O)C(O)(c2ccccc2)c2ccccc2)CC1`: the inhibition was inactive: -5.32%.

Take `COc1ccc(NC2CCN(C(=O)OC(C)(C)C)CC2)cc1`: the inhibition is inactive: 1.53%.

Turning to `CC(C)c1ccc(C(=O)NCC2(N3CCOCC3)CCCCC2)cc1`, the inhibition was inactive: 7.54%.

Regarding `CCCCn1nnnc1C(c1cccc2ccccc12)N1CCC(n2c(=O)[nH]c3ccccc32)CC1` (stereo not drawn), the inhibition is inactive: -6.44%.

Take `COc1cc(C(=O)NCC2(N3CCCCC3)CCCCC2)ccc1OC(F)F`: the inhibition is inactive: -4.1%.

Regarding `O=C(NCC1(N2CCOCC2)CCCCC1)c1cc(=O)[nH]c2ccccc12`, the inhibition was inactive: -7.31%.

As to `O=C(NCC1(N2CCCCC2)CCCCC1)c1cccc(C(F)(F)F)c1`, the inhibition is inactive: 3.36%.

For the compound `O=C(NCC1(N2CCCCC2)CCCCC1)c1cccc([N+](=O)[O-])c1`, the inhibition was inactive: 1.38%.

For the compound `CSc1ccc(C(=O)NCC2(N3CCOCC3)CCCCC2)cc1`, the inhibition is inactive: -4.48%.

As to `CCN1CCC(Nc2ccc(Cl)cc2)CC1`, the inhibition is inactive: -4.62%.

As to `O=c1[nH]c2ccccc2n1C1CCN(C(c2ccccc2OC(F)(F)F)c2nnnn2C2CCCC2)CC1` (stereo not drawn), the inhibition is inactive: 7.09%.

In the case of `N#CC1(Nc2ccccc2)CCN(CCc2ccccc2)CC1`, the inhibition is inactive: 8.33%.

Consider `CC(C)(C)n1nnnc1C(c1ccccc1OC(F)(F)F)N1CCC(n2c(=O)[nH]c3ccccc32)CC1` (stereo not drawn), for which the inhibition is inactive: -9.32%.

In the case of `O=C(NCC1(N2CCCCC2)CCCCC1)c1ccc(OC(F)F)cc1`, the inhibition was inactive: 0.06%.

`O=c1[nH]c2ccccc2n1C1CCN(C(c2cccc3ccccc23)c2nnnn2C2CCCC2)CC1` (stereo not drawn): the inhibition was inactive: -10.6%.

`CCOC(=O)N1CCC(Nc2cccc(C)c2)CC1`: the inhibition is inactive: -12.3%.

As to `COc1cc(C(=O)NCC2(N(C)C)CCCCC2)ccc1OC(F)F`, the inhibition is inactive: -12.8%.

As to `O=c1[nH]c2ccccc2n1C1CCN(C(c2ccccc2)c2nnnn2C2CCCCC2)CC1` (stereo not drawn), the inhibition is inactive: -7.06%.

Take `CCCCn1nnnc1C(c1cc2ccccc2o1)N1CCC(n2c(=O)[nH]c3ccccc32)CC1` (stereo not drawn): the inhibition was inactive: -9.55%.

For `O=P1(N(CCCl)CCCl)SCCCS1`, the inhibition was inactive: -6.01%.

Regarding `CCCCOc1ccc(C(=O)NCC2(N3CCOCC3)CCCCC2)cc1`, the inhibition was inactive: -1.18%.

On to `O=C(NCC1(N2CCCCC2)CCCCC1)c1ccc(F)cc1`, for which the inhibition is inactive: -50.2%.

Take `COc1ccc(NC2CCN(CCc3ccccc3)CC2)c(OC)c1`: the inhibition is inactive: 4.76%.

`CCOC(=O)N1CCC(Nc2ccc(F)cc2)CC1`: the inhibition was inactive: -9.57%.

Regarding `CCOc1ccc(C)cc1CN(CCCl)CCCl`, the inhibition is inactive: -10.4%.

Take `CC(C)(C)n1nnnc1C(c1ccccc1)N1CCC(n2c(=O)[nH]c3ccccc32)CC1` (stereo not drawn): the inhibition is inactive: -15.2%.

For `O=C1CCN(Cc2ccccc2)CC1`, the inhibition is inactive: -2.95%.

Regarding `CCOC(=O)N1CCC(Nc2ccc(OC)cc2)CC1`, the inhibition is inactive: 3.77%.

Turning to `CCCCn1nnnc1C(c1ccc(OC)cc1)N1CCC(n2c(=O)[nH]c3ccccc32)CC1` (stereo not drawn), the inhibition is inactive: -11.7%.

Regarding `O=C(NCC1(N2CCCCC2)CCCCC1)c1ccc(Cl)s1`, the inhibition was inactive: -0.02%.

Regarding `N#CC1(Nc2ccccc2)CCN(Cc2ccccc2)CC1`, the inhibition is inactive: 7.55%.

As to `O=C(OC1CN2CCC1CC2)C1c2ccccc2Oc2ccccc21` (stereo not drawn), the inhibition was inactive: -0.36%.

In the case of `O=c1[nH]c2ccccc2n1C1CCN(C(c2cc3ccccc3o2)c2nnnn2C2CCCCC2)CC1` (stereo not drawn), the inhibition was inactive: -1.97%.

As to `COc1ccc(Cl)cc1C(=O)NCC1(N2CCOCC2)CCCCC1`, the inhibition was inactive: -4.64%.

`O=C(NCC1(N2CCOCC2)CCCCC1)c1cc2ccccc2o1`: the inhibition was inactive: 2.19%.

On to `O=C(NCC1(N2CCCCC2)CCCCC1)c1ccc(Cl)nc1`, for which the inhibition is inactive: 7.3%.

On to `O=c1[nH]c2ccccc2n1C1CCN(C(c2ccccc2OC(F)(F)F)c2nnnn2C2CCCCC2)CC1` (stereo not drawn), for which the inhibition was inactive: -8.76%.

For `Cc1cc(C)cc(N(C(=O)c2ccccc2)C2CCN(C(=O)OC(C)(C)C)CC2)c1`, the inhibition is inactive: 2.76%.

`CSc1ccccc1C(=O)NCC1(N2CCCCC2)CCCCC1`: the inhibition is inactive: 1.24%.

In the case of `Cc1cccc(NC2(C#N)CCN(Cc3ccccc3)CC2)c1`, the inhibition was inactive: -17.5%.

As to `O=C(NCC1(N2CCCCC2)CCCCC1)c1ccc(=O)[nH]c1`, the inhibition was inactive: 2.28%.

With `CCCCn1nnnc1C(CC)N1CCC(n2c(=O)[nH]c3ccccc32)CC1` (stereo not drawn), the inhibition was inactive: -4.33%.

As for `O=C(NCC1(N2CCCCC2)CCCCC1)c1cccs1`, the inhibition is inactive: -1.09%.

Consider `CCCCn1nnnc1C(c1cccs1)N1CCC(n2c(=O)[nH]c3ccccc32)CC1` (stereo not drawn), for which the inhibition was inactive: 2.55%.

Turning to `COc1ccc(C(=O)NCC2(N3CCCCC3)CCCCC2)cc1`, the inhibition is inactive: -4.43%.

Consider `COc1ccc(C(=O)NCC2(N3CCCCC3)CCCCC2)c(OC)c1OC`, for which the inhibition is inactive: 2.61%.

In the case of `CC(C)(C)OC(=O)N1CCC(N(C(=O)c2ccccc2)c2ccc(F)cc2)CC1`, the inhibition is inactive: -15.4%.

Consider `CCC(c1nnnn1C1CCCC1)N1CCC(n2c(=O)[nH]c3ccccc32)CC1` (stereo not drawn), for which the inhibition is inactive: -5.4%.
